MC4R antagonist: antagonists of human melanocortin 4 receptor (MC4R); MC4R-expressing cells, MTII-stimulated cAMP, LANCE TR-FRET; inhibition, % at 6.5 µM; actives 0.48% (n = 360,000); AID 540295;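 active = inhibition above its plate's cutoff, the mean of tested wells on that plate plus 3 SD, cut at about 29% in these data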
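Assay system: human MC4R-expressing U2OS cells; reagent: Melanotan II stimulation of cells; dosing: 6.5 µM single dose; timing: compound 30 min, challenge 1 h, detection 1 h; signal: TR-FRET cAMP assay; replicates: one well per compound, no replicates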
HDAC3 inhib: inhibitors of human histone deacetylase 3 | O15379 | recombinant HDAC3, fluorogenic peptide/trypsin coupled, fluorescence | actives 0.15% (n = 320,000) | inhibition, % at 8.3 µM; in the data active = inhibition above about 26%, passing the limit was not always enough
NALP1 yeast inh: NALP1 inhibition; AID 2071; actives 0.61% (n = 280,000); S. cerevisiae NALP1/ASC/caspase-1 growth, X-gal OD620, 72 h; inhibition, % at 10 µM; in the data active = inhibition mostly above about 24%, no sharp cut-off; inactive = mostly below about 32%
Yeast UUG start: alters start codon recognition fidelity in yeast. S. cerevisiae UUG-firefly luciferase reporter, luminescence/redox ratio. 350,000 tested, 0.13% active. activity score, % at 18.7 µM. AID 602363;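 active means replicate mean at a twofold rise or more, about +100% in these data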;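 further: firefly luciferase made from a UUG start codon reports start codon fidelity; reporter light over untreated wells divided by growth signal over untreated wells; some hits fall short of that in this replicate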
ALR inh: blocks human ALR sulfhydryl oxidase activity; P55789; purified ALR, DTT oxidation, H2O2 HRP-luminol luminescence; inhibition, % (test concentration not listed); 3.8% of 290,000 active; AID 485317;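 active = mean and each replicate at 75% or more; inconclusive = only one of the two met; inactive = neither met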;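 also: stock transfer was 7.5 nL into about 7.5 µL; 0% = neutral wells and 100% = wells with inactivated enzyme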
MC4R barr agon: agonists of human melanocortin 4 receptor (MC4R) beta-arrestin; P32245; activation, % at 8.9 µM; U2OS MC4R beta-arrestin complementation, luminescence; percent of melanotan II response, DMSO zero; actives 0.98% (n = 360,000); AID 540308;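 active = activation above a per-plate cutoff, the mean activation of sample wells on that plate plus 3 SD, cut at about 8% in these data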
Numbers stand for hits; - = inactive; . = not tested or not shown. In the library only some 4.2% were active in any assay of this set; here they are far more common.

SMILES	MC4R antagonist	HDAC3 inhib	NALP1 yeast inh	Yeast UUG start	ALR inh	MC4R barr agon
O=c1[nH]c2cc3c(cc2cc1C(c1nnnn1Cc1ccccc1)N1CCN2CCCC2C1)OCCO3 (stereo not given)	-	.	29.3	-	.	-
CC(C)NC(=O)N(C)C[C@H]1Oc2cc(C#CC3CC3)ccc2S(=O)(=O)N([C@@H](C)CO)C[C@H]1C	.	.	.	-	.	.
C[C@]12CC[C@H]3C(=CCc4cc(O)ccc43)[C@@H]1CCC2=O	-	-	-	-	93.8	-
C[C@]12C[C@H](O)[C@@H]3c4ccc(O)cc4CCC3[C@@H]1CCC2=O (stereo not given in full)	-	.	.	-	.	-
COCC(=O)N(C)C[C@H]1Oc2ncc(-c3ccccc3OC)cc2C(=O)N([C@H](C)CO)C[C@@H]1C	.	.	.	-	.	.
O=c1cc(O)nc(SCc2ccccc2)[nH]1	-	-	-	-	98.3	-
CCCOc1ccc(C(C)=O)cc1CSCCC#N	-	-	-	-	-	-
O=C(CSc1nc(O)cc(=O)[nH]1)N1c2ccccc2Sc2ccccc21	-	-	-	-	99.3	-
O=C(CSc1nc2ccccc2[nH]1)N1c2ccccc2Sc2ccccc21	-	.	-	.	.	-
CCCOc1ccc(C(C)=O)cc1CSc1nc(O)cc(=O)[nH]1	-	-	-	-	98.8	-
CCN1CCN(c2ccc(N=Cc3ccc(O)cc3O)cc2)CC1	-	-	-	.	98.8	-
O=C(C[C@@H]1CC[C@H](NC(=O)c2ccc3c(c2)OCO3)[C@H](CO)O1)NC1Cc2ccccc2C1	.	.	.	-	.	.
CC(C)(C)c1ccc(C(=O)CC(Sc2ccc(Cl)cc2)C(=O)O)cc1 (stereo not given)	-	-	-	.	98.0	-
CN(CCCNC(=O)C1CCCN(S(=O)(=O)c2cnc[nH]2)C1)c1ccccc1 (stereo not given)	-	-	-	-	99.7	-
CCCCS(=O)(=O)N1CCCC(C(=O)Nc2ccc3c(c2)CCC3)C1 (stereo not given)	-	-	26.9	-	-	-
O=C(NCCCN1CCN(c2ccccc2F)CC1)C1CCCN(S(=O)(=O)c2cnc[nH]2)C1 (stereo not given)	-	.	-	-	.	-
CCCCS(=O)(=O)N1CCCC(C(=O)NCCc2ccccc2)C1 (stereo not given)	-	-	-	-	-	-
CCCS(=O)(=O)N1CCCC(C(=O)NCCCN(C)c2ccccc2)C1 (stereo not given)	-	-	-	-	81.6	-
Cc1ccc(/C=C/C(=O)c2ccccc(=O)c2O)c(C)c1	-	-	-	-	-	-
Cc1ccc(C)c(/C=C/C(=O)c2ccccc(=O)c2O)c1	-	-	-	-	96.7	-
CC(C)(C)S(=O)(=O)/C(C#N)=N/Nc1ccc(Cl)cc1	-	-	-	.	98.8	-
Cc1nc2ccc(Cl)cc2[nH]1	-	.	.	-	.	-
Cc1nc2ccc(C(C(F)(F)F)(C(F)(F)F)C(F)(F)F)cc2[nH]1	-	31.8	40.0	-	-	-
CCCN(CCC)CCCNC(=O)CS(=O)Cc1nc(-c2ccc(OC)c(OC)c2)oc1C (stereo not given)	-	-	-	-	99.5	-
CCCCN(C)CCCNC(=O)CS(=O)Cc1nc(-c2ccc(OC)c(OC)c2)oc1C (stereo not given)	-	-	-	-	99.6	-
SMILES	MC4R antagonist	HDAC3 inhib	NALP1 yeast inh	Yeast UUG start	ALR inh	MC4R barr agon
CC1=Nc2ccccc2N=C(NC(=O)CN2CCN(c3ccccc3)CC2)C1c1ccccc1 (stereo not given)	-	-	-	.	-	-
CC1=Nc2ccccc2N=C(NC(=O)c2ccccc2)C1c1ccccc1 (stereo not given)	-	34.2	-	-	-	-
CCCNC(=O)C[C@H]1C[C@H]2c3cc(NC(=O)NC4CCCC4)ccc3O[C@H]2[C@@H](CO)O1	.	.	.	-	.	.
CCCCNc1c(N)n(CCC)c(=O)[nH]c1=O	-	-	-	-	-	-
CCCn1c(N)c(NCCN2CCOCC2)c(=O)[nH]c1=O	-	-	-	.	99.4	-
COc1cccc(C2c3c(C)nn(-c4ccc([N+](=O)[O-])cc4)c3N=C3C(=O)Nc4ccccc4N32)c1 (stereo not given)	-	-	29.5	.	-	-
COCC(=O)Nc1ccc2c(c1)C(=O)N(C)C[C@H](OC)[C@H](C)CN(C(=O)CC1CC1)[C@H](C)CO2	.	.	.	-	.	.
CC(C)c1ccccc1NC(=S)NCCCn1ccnc1	-	-	-	-	87.0	-
O=C(N/N=C/c1coc2ccc(Cl)cc2c1=O)c1ccc(O)cc1	-	96.9	-	-	97.9	-
COc1cc(C(=O)N/N=C/c2coc3ccc(Cl)cc3c2=O)ccc1O	-	96.2	-	-	-	-
C[C@@H]1CCCCO[C@H](CN(C)C(=O)Nc2ccc(F)cc2)[C@@H](C)CN([C@H](C)CO)C(=O)c2cc(NS(=O)(=O)c3cn(C)cn3)ccc2O1	.	.	.	-	.	.
Brc1ccccc1Cn1c(-c2cscn2)nc2ccccc21	-	-	-	-	-	9.3
Cc1ccc(CONC(=O)c2cccc([N+](=O)[O-])c2)cc1	-	-	.	-	.	-
COC(=O)C(/C=N/OCc1ccc([N+](=O)[O-])cc1)NC(=O)c1cccc(Cl)c1 (stereo not given)	-	44.3	-	-	-	-
C[C@H](CO)N1C[C@H](C)[C@@H](CN(C)S(=O)(=O)c2cn(C)cn2)Oc2ccc(NC(=O)CCCN(C)C)cc2C1=O	.	.	.	-	.	.
O=C(Nc1cc(Br)ccc1O)C1CC(c2ccccc2Cl)=NO1 (stereo not given)	-	-	-	-	-	8.6
O=C(Nc1cc(Cl)ccc1O)C1CC(c2c(F)cccc2Cl)=NO1 (stereo not given)	-	-	-	-	-	-
CC(C)C[C@@H]1NC(=O)[C@H]2C[C@@H](C(=O)NCc3ccc(F)cc3)[C@@H](c3cccc(OCCO)c3)N2C1=O	.	.	.	-	.	.
Cc1ccc(S(=O)(=O)NCC[C@H]2CC[C@@H](NC(=O)Nc3cccc(F)c3)[C@H](CO)O2)cc1	.	.	.	-	.	.
COC(=O)c1c(C)cc(O)c(C=O)c1O	-	-	.	-	-	-
COc1cc(C(=O)O)c2c(c1C)OC(=O)c1c(C)cc(O)c(C=O)c1O2	-	-	.	-	98.6	-
Cc1cc(C(=O)NP(=O)(N2CCOCC2)N2CCOCC2)c(C)n1-c1ccc(N(C)C)cc1	-	-	-	.	93.4	-
COCCCNc1nc(-c2ccc(Cl)cc2)nc2ccccc12	-	-	36.3	-	-	-
OCCNc1nc(-c2ccccc2)nc2ccccc12	-	-	-	.	.	-
OCCCNc1nc(-c2ccc(Cl)cc2)nc2ccccc12	-	-	-	-	97.7	-
COc1cc(/C=N/NC(=O)CCn2nc(C)cc2C)ccc1O	-	-	-	-	.	-
Cc1cc(C)n(CCC(=O)N/N=C/c2ccc(O)cc2)n1	-	-	-	.	98.6	-
CCOc1cc(/C=N/NC(=O)CCn2nc(C)cc2C)ccc1O	-	-	-	.	98.7	-

From PubChem BioAssay
